According to patent publication US9375434B2, “Antitumor effect potentiator composed of imidazooxazine compound” (Taiho Pharmaceutical Co., Ltd., priority 2012, dated 2016):

Columns and labels:
[1] = tested on: Human ovarian cancer cell line (A2780); assay: Potentiation of antitumor effect of doxorubicin, A2780 subcutaneous implant in nude mice (Test Example 6); type: in vivo, BALB/cA Jcl-nu/nu mice; conditions: doxorubicin 7 mg/kg/day day 1, 8
Experimental: In the groups receiving only Compound-I, the test liquid was prepared by diluting Compound-I with 0.5% HPMC to enable administration at a Compound-I dose of 16 mg/kg/day. […] FIG. 11 and Table 15 show the results.

[2] = tested on: Human stomach cancer cell line (4-1ST); assay: Potentiation of effect of trastuzumab (Herceptin), 4-1ST subcutaneous implant in nude mice (Test Example 11); type: in vivo, BALB/cA Jcl-nu/nu mice; conditions: Herceptin 20 mg/kg/day, Day 1, 8, i.p.
Experimental: According to the package insert, 7.2 mL of water for injection was added to a vial containing 150 mg of trastuzumab (Roche Pharma) using a sterilized injection syringe. The resulting 21 mg/mL solution was kept in a freezer. At the time of use, the frozen solution was diluted 10.5-fold with 4.75 mL of physiological saline at a trastuzumab concentration of 2.0 mg/mL, to yield a liquid for administration at a trastuzumab dose of 20 mg/kg/day. The test liquids of Compound-I were prepared to enable administration at doses of 16 and 24 mg/kg/day.
Compound-I and trastuzumab were administered once a day from Day 1 to 14. […] FIGS. 17A and 17B and Table 20 show the results. In the medium/Compound I administration group, the test liquid was orally administered once a day for consecutive days. In the trastuzumab administration group, the test liquid was intraperitoneally administered once a day for consecutive days.

Compound | RTV day 15 Mean ± SD [1] | RTV^b) (mean ± SD) [2] | TGI^c) (%) [2]
COc1cccc2c1C(=O)c1c(O)c3c(c(O)c1C2=O)C[C@@](O)(C(=O)CO)C[C@@H]3O[C@H]1C[C@H](N)[C@H](O)[C@H](C)O1 [Doxorubicine, doxorubicin, reference compound] | 12.50 ± 3.19 |  | 
Herceptin: trastuzumab (Roche Pharma), antibody molecular target drug |  | 4.15 ± 0.42 | 41.4%
